Antibody variant affinities, Ab-14 heavy chain, assay B

Binding partner: SARS-CoV-2 spike HR2 peptide, sequence PDVDLGDISGINAS.

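Phage display of a naive human antibody library on the peptide gave the parent. Designed CDR sequences, proposed from the first random library and measured here. Their group label is 14H_GPLM_HC (GPLM: also part of the Gaussian process libraries; HC: hill climbing; a sequence that several methods proposed may carry one label only). The scFvs were displayed on barcoded MATa yeast, the peptide on MATalpha yeast. Mating (16 h, 30 °C) was followed by selection of diploids and sequencing of their barcodes. Scores were corrected for input abundance and mapped to Kd with protein pairs of known affinity run in the same pool. There are six technical replicates.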

Ab-14 is the parent antibody, in scFv form: VH, then the linker GGGGSGGGGSGGGGS, then VL. The light chain is unchanged in all variants.
VH: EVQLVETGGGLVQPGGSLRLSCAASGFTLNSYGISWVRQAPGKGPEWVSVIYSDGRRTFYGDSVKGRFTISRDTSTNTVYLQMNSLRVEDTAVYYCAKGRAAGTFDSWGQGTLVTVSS
VL: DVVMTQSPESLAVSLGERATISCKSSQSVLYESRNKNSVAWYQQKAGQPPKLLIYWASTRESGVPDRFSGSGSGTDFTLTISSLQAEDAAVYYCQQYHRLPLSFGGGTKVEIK

Sequences are complete VH domains. The read-out is the apparent dissociation constant on a log10 scale (nM): the lower, the stronger. "n.d." marks a missing value. The strain was present, yet no cells mated with the target were sequenced in that replicate, which points to weak or no binding. Empty control strains, which show no peptide, gave a signal in 1% of pairings with all heavy chain designs; the median was 2.08 and 95% of these signals were weaker than 0.84. No background was subtracted. Also given: how often the same scFv was detected with the empty control strains, with their mean in brackets.

| # | VH | replicates, log10 nM | signal with controls |
|---|---|---|---|
| 1 | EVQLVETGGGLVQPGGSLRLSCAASGFDLNSYGISWVRQAPGKGPEWVSVIYSDGRRTFYGDSVKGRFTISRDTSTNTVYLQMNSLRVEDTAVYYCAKGRAAGIFWSWGQGTLVTVSS | n.d. n.d. n.d. n.d. n.d. n.d. | 0 of 18 |
| 2 | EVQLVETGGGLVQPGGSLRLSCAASGFSLNSYGISWVRQAPGKGPEWVSVIYSDGRRTFYSDSVKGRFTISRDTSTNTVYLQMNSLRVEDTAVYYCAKGEAGGTFDSWGQGTLVTVSS | n.d. n.d. n.d. n.d. n.d. n.d. | 0 of 18 |
| 3 | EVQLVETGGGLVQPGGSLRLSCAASGFTLNSYGISWVRQAPGKGPEWVSVIYADGRRTFYGDSVKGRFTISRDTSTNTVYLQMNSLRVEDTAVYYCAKGRAAGTFKKWGQGTLVTVSS | n.d. n.d. n.d. n.d. n.d. n.d. | 0 of 18 |
| 4 | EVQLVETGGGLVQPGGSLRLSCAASGFDLNSYGISWVRQAPGKGPEWVSVIYSDGRRTFYGDSVKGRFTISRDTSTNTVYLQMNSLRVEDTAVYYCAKGRAAGIFDSWGQGTLVTVSS | n.d. n.d. n.d. n.d. n.d. 3.36 | 2 of 18 (2.25) |
| 5 | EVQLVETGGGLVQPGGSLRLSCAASGFTLNEYGISWVRQAPGKGPEWVSVIYSDGYRTFYGDSVKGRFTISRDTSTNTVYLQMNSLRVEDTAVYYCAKGRAAVTFDKWGQGTLVTVSS | n.d. n.d. n.d. n.d. n.d. n.d. | 0 of 18 |
| 6 | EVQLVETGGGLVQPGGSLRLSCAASGFTLNSYGISWVRQAPGKGPEWVSVIYSDGRRTFYDDSVKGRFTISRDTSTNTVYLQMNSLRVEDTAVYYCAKGNLAGTFDSWGQGTLVTVSS | 0.19 0.22 -0.27 0.36 -0.26 -0.20 | 0 of 18 |
| 7 | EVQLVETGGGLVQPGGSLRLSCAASGFTLNEYGISWVRQAPGKGPEWVSVIYSDGRRWFYTDSVKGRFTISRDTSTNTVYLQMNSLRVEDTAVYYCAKGRFAGTFDSWGQGTLVTVSS | n.d. n.d. 1.80 2.14 n.d. 2.51 | 0 of 18 |
| 8 | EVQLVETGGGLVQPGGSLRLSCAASGFYLNSYGISWVRQAPGKGPEWVSVIYSDGRRTFYKDSVKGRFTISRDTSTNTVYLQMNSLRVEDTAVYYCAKGQLAGTFDSWGQGTLVTVSS | n.d. n.d. n.d. 1.59 n.d. n.d. | 1 of 18 (2.56) |
| 9 | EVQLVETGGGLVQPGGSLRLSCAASGFTLNEYGISWVRQAPGKGPEWVSVIYSDGRRTFYSDSVKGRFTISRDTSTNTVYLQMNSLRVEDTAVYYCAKGRAGGTFDSWGQGTLVTVSS | 0.19 -0.10 0.36 0.67 0.39 0.37 | 0 of 18 |
| 10 | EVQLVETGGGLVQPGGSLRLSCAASGFTLNEYGISWVRQAPGKGPEWVSVIYSDGRRTFYGDSVKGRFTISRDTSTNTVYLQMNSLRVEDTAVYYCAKGRQAGTFDGWGQGTLVTVSS | 1.06 0.59 0.80 0.73 0.74 0.70 | 2 of 18 (1.84) |
| 11 | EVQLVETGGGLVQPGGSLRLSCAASGFTLNDYGISWVRQAPGKGPEWVSVIYSDGRRTFYGDSVKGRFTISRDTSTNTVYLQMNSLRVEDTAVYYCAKGRMAGTFSSWGQGTLVTVSS | n.d. 2.49 n.d. 2.66 2.91 2.52 | 0 of 18 |
| 12 | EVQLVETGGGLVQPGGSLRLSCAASGFTLNEYGISWVRQAPGKGPEWVSVIYADGRRTFYGDSVKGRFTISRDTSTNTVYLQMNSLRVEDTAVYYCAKGRAAGTNDSWGQGTLVTVSS | 2.12 2.41 n.d. 2.56 3.05 1.49 | 1 of 18 (2.94) |
| 13 | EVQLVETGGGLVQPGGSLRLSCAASGFTLNSYGISWVRQAPGKGPEWVSVIYSDGRRTFYIDSVKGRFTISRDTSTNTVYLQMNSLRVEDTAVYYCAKGTAAGTFDSWGQGTLVTVSS | 0.50 -0.51 0.11 2.17 0.23 1.90 | 0 of 18 |
| 14 | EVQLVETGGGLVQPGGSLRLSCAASGFSLNSYGISWVRQAPGKGPEWVSVIYSDGRRTAYGDSVKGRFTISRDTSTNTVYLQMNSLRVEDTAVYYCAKGRAAGTFNSWGQGTLVTVSS | 1.77 3.21 n.d. 1.84 2.32 2.54 | 1 of 18 (2.22) |
| 15 | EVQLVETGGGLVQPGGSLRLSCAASGFTLNEYGISWVRQAPGKGPEWVSVIYSDGRRTFYGDSVKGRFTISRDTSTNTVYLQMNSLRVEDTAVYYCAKGRAAGTFDNWGQGTLVTVSS | 0.74 0.53 0.62 0.89 0.96 0.66 | 0 of 18 |
| 16 | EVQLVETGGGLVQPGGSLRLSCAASGFTLNDYGISWVRQAPGKGPEWVSVIYSDGMRTFYSDSVKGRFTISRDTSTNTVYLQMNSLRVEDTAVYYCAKGRAAGTFDSWGQGTLVTVSS | n.d. 1.87 n.d. 0.19 n.d. 2.64 | 0 of 18 |
| 17 | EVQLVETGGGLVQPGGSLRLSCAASGFTLNEYGISWVRQAPGKGPEWVSVIYSDGRRTFYQDSVKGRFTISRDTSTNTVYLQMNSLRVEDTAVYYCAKGRFAGTFDSWGQGTLVTVSS | n.d. 1.75 0.24 0.86 3.47 0.82 | 0 of 18 |
| 18 | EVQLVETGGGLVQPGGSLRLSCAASGFTLNQYGISWVRQAPGKGPEWVSVIYSDGRRTFYSDSVKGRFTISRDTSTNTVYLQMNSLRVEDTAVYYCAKGQAAGTFDSWGQGTLVTVSS | 0.95 0.37 0.06 -0.11 0.29 0.31 | 0 of 18 |

The opening 2 entries, copied out:

| VH | replicates, log10 nM | signal with controls |
|---|---|---|
| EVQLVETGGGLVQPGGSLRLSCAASGFDLNSYGISWVRQAPGKGPEWVSVIYSDGRRTFYGDSVKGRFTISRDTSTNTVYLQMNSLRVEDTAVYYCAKGRAAGIFWSWGQGTLVTVSS | n.d. n.d. n.d. n.d. n.d. n.d. | 0 of 18 |
| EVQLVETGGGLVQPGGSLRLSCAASGFSLNSYGISWVRQAPGKGPEWVSVIYSDGRRTFYSDSVKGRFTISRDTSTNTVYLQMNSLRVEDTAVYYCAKGEAGGTFDSWGQGTLVTVSS | n.d. n.d. n.d. n.d. n.d. n.d. | 0 of 18 |

The authors' rule: three or more of the six replicates give a measured affinity, fewer mean a poor binder. A sequence measured in both rounds can read differently, since the two assays cover different ranges.

Data: MIT Lincoln Laboratory AlphaSeq set, Li et al. 2023, doi:10.1038/s41467-023-39022-2, as distributed in FLAb.